Literature values in patent US8853224B2 (priority 2006, dated 2014).

Amino acid sequences for entries named in this document (tags omitted). A change or cut given only in a name is not applied to a line headed by its entry.
UniProt P00491: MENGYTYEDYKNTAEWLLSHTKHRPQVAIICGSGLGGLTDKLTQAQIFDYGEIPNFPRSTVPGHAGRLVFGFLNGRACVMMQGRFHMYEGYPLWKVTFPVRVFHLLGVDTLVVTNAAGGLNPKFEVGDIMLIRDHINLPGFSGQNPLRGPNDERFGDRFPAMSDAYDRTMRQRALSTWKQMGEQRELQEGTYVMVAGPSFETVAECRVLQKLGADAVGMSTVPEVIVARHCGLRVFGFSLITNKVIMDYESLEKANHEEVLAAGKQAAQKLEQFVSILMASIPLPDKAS

Target: human purine nucleoside phosphorylase (HsPNP) (Homo sapiens (Human), UniProt P00491)
Settings: cited from earlier work

| Substance | Kd values for binding to HsPNP |
| --- | --- |
| DADMe-Immucillin-H | picomolar range |
| Immucillin-H | picomolar range |
